The values below come from patent US8691817B2, “Sulfonic amide and sulfoximine-substituted diaryl-dihydropyrimidinones and usage thereof” (Bayer Intellectual Property GmbH, priority 2009, dated 2014).

This data set has as its system rat hepatocytes. The data set can be described thus: Hepatocyte assay to determine the metabolic stability. The data set is classed as in vitro ADME. To be noted: after incubation with rat hepatocytes. How it is done: The metabolic stability of test compounds in the presence of hepatocytes is determined by incubating the compounds with low concentrations (preferably below or around 1 μM) and with low cell counts (preferably 1*10^6 cells/ml) in order to ensure as far as possible linear kinetic conditions in the experiment. Seven samples of the incubation solution are taken in a fixed time pattern for the […] analysis in order to determine the half-life (i.e. the degradation) of the compound in each case. Various clearance parameters (CL) and Fmax values are calculated from this half-life (see below).
The Cl and Fmax values represent a measure of the phase 1 and phase 2 metabolism of the compounds in the hepatocytes. In order to minimize the influence of the organic solvent on the enzymes in the incubation mixtures, this concentration is generally limited to 1% (acetonitrile) or 0.1% (DMSO).
A cell count for hepatocytes in the liver of 1.1*10^8 cells/g of liver is used for calculation for all species and breeds. CL parameters calculated on the basis of half-lives extending substantially beyond the incubation time (normally 90 minutes) can be regarded only as rough guidelines. […]

The structures appear in SMILES notation.

For the compound `CC1=C(C#N)[C@@H](c2ccc(C#N)cc2S(C)(=N)=O)N(C)C(=O)N1c1cccc(C(F)(F)F)c1` (mixture of isomers) [Example 38, (SS)-(4S)-4-[4-Cyano-2-(S-methylsulfonimidoyl)phenyl]-3,6-dimethyl-2-oxo-1-[3-(trifluoromethyl)phenyl]-1,2,3,4-tetrahydropyrimidine-5-carbonitrile or (RS)-(4S)-4-[4-cyano-2-(S-methylsulfonimidoyl)phenyl]-3,6-dimethyl-2-oxo-1-[3-(trifluoromethyl)phenyl]-1,2,3,4-tetrahydropyrimidine-5-carbonitrile], the “Fmax, maximum possible bioavailability after oral administration (well-stirred)” value is 99%.
